According to PMC8927147, “Global profiling of regulatory elements in the histone benzoylation pathway” (Nature Communications, 2022):

Target: T1, Gcn5-Ada2 complex (Saccharomyces cerevisiae, UniProt Q03330)
T1 sequence (Q03330 67-317): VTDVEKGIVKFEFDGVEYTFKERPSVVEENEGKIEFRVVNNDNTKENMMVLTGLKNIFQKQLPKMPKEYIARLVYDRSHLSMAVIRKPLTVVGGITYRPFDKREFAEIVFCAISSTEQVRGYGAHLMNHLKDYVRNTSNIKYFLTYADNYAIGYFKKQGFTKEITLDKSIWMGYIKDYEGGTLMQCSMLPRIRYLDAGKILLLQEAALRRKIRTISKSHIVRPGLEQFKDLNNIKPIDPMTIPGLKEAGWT
T1 sequence (Q02336 1-120 partner): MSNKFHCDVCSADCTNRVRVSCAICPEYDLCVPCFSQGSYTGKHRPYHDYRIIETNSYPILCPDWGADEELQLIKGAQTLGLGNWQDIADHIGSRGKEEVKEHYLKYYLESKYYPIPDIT
Assay: ITC binding of acyl-CoAs to the Gcn5-Ada2 complex
Conditions: Supplementary Fig. 3j, value given in the reply to reviewers
Method: ITC titrations were performed using a MicroCal ITC200 system (GE Healthcare, USA) at 20 °C. For ITC measurement, peptides and proteins were dialyzed into the same buffer (25 mM Tris-HCl, pH 8.0, 150 mM NaCl). […] For reader-related ITC experiments, peptides at 2.0 mM in the syringe were titrated into Taf14YEATS/Sas5YEATS/Sth1BD at 0.1–0.2 mM in the sample cell. Each titration consisted of 20 successive injections. The titration curves were processed using the Origin 7.0 software program (OriginLab) according to the one-binding-site fitting model. Each titration was repeated twice, and one representative plot was shown in the paper. The dissociation constants (Kd), enthalpy changes (ΔH), and fitting errors were derived from one representative ITC plot.

## succinyl-CoA
  Kd: 14.5 µM
